Assay results taken from ChEMBL document CHEMBL1146769, “The discovery of N-(1,3-thiazol-2-yl)pyridin-2-amines as potent inhibitors of KDR kinase” (Bioorg Med Chem Lett, 2004).

The chains behind the UniProt entries cited, without tags or fusion partners.
UniProt P35968, whole entry: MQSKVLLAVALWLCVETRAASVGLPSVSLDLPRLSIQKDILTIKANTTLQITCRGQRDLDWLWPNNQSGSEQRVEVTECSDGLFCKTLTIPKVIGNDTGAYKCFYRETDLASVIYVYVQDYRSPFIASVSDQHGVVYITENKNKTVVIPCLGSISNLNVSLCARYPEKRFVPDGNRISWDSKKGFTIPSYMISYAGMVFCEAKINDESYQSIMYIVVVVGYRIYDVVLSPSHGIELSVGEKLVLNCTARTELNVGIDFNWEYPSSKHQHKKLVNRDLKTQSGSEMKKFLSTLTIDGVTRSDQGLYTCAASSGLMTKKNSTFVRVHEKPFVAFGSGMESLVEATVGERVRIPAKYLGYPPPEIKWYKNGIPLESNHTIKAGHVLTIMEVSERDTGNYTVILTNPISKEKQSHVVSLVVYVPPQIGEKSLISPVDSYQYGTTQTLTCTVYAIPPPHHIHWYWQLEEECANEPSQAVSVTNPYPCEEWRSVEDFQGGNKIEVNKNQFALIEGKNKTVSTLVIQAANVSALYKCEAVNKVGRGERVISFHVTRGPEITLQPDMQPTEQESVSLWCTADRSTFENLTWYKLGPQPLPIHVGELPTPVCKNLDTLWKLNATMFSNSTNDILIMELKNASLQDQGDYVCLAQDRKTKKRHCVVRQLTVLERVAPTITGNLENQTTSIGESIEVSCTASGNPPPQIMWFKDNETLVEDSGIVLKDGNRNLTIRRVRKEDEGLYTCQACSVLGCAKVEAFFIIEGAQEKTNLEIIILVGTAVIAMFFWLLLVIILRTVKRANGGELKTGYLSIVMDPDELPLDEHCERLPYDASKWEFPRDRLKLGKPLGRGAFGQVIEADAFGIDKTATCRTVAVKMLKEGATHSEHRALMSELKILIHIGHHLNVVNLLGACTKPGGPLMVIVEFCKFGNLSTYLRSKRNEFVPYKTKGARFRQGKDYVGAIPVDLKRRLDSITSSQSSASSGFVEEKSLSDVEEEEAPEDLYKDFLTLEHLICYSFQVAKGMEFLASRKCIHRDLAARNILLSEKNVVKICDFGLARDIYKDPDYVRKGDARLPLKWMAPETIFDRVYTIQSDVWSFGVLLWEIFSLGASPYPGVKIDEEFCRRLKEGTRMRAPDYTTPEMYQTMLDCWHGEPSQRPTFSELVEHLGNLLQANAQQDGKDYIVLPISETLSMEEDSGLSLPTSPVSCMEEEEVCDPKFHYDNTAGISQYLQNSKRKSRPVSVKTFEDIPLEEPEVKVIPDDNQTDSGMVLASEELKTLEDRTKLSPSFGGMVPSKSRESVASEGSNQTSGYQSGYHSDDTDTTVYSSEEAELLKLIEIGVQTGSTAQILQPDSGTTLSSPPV

Target: Vascular endothelial growth factor receptor 2 (Homo sapiens, UniProt P35968)
Assay: Inhibitory activity towards vascular endothelial growth factor receptor 2

IC50: 134 nM
SMILES: c1ccc(Nc2ncc(-c3ccccc3)o2)cc1 [GW549390X]
